Literature values, collected in patent US9465025B2, “Stable neural stem cell lines” (Neuralstem, Inc., priority 1996, dated 2016).

Molecular target: T1, ligand binding fragment of the human progesterone receptor (Homo sapiens, UniProt P06401)
T1 sequence (P06401 679-913 limits assumed): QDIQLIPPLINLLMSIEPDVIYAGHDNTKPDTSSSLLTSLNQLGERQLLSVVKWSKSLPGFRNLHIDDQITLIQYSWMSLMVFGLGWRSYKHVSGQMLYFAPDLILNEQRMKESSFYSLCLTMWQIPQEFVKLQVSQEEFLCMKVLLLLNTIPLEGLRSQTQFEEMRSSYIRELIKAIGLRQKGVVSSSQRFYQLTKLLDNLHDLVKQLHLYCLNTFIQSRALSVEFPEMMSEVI
Settings: Wang et al. 1994; cited from earlier work

SMILES	activation of receptor fragment
CC#C[C@]1(O)CC[C@H]2[C@@H]3CCC4=CC(=O)CCC4=C3[C@@H](c3ccc(N(C)C)cc3)C[C@@]21C [RU38486]	sensitively activated
CC(=O)[C@H]1CC[C@H]2[C@@H]3CCC4=CC(=O)CC[C@]4(C)[C@H]3CC[C@]12C [progesterone]	does not respond
